Results: EP4840863A1, “FLUORINE-CONTAINING PARTHENOLIDE DERIVATIVE, PREPARATION METHOD THEREFOR AND USE THEREOF” (dated 2026)

Assays:
U-118 = assay: Anticancer activity test (CCK-8), U-118 cells; settings: 72 h, Table 1-1
Description: (§1) Cells in logarithmic growth phase were digested, centrifuged, and counted; the cell suspension was adjusted to a concentration of 1500-3500 cells/well, and 95 µL was seeded into each well of a 96-well plate.
(§2) After continued overnight culture, drugs at different concentrations were added to the plate, with six replicate wells for each concentration. 10 µL of the drug was added to each well, followed by incubation for 72 h. Then, 10 µL of CCK-8 solution was added to each well (care should be taken to avoid generating bubbles in the wells, as they can affect the OD reading). After incubation in the incubator for 1-4 h, the OD value at 450 nm was measured using a microplate reader. The experiment to assess the effect of each drug on each cell line at different time points was repeated three times.
(§3) Data were processed using EXCEL software to calculate the inhibition rate at different concentrations, and SPSS was used to fit the IC50 value. EXCEL was used to calculate the mean and standard deviation of the three IC50 values. Inhibition rate % = {1 - (OD value of drug well - OD value of blank well) / (OD value of control well - OD value of blank well) } * 100%. Table 1-1 Activity of Compounds in Inhibiting Cancer Cells

[1] = Pharmacokinetic study of Compound 4: plasma concentrations (LC/MS); settings: for AUC0-t: Plasma
Description: (1) Forty-eight healthy Bar b/c mice, each weighing approximately 20 g, were taken and divided into 3 groups. Blank control group (6 mice), oral gavage administration group (Compound 4 dose: 50 mg/kg, 21 mice), and tail vein injection administration group (Compound 4 dose: 10 mg/kg, 21 mice) (2) For the oral gavage group, blood samples were collected at 5 min, 15 min, 30 min, 1 h, 3 h, 8 h, and 24 h after administration. For the intravenous injection group, blood samples were collected at 2 min, 5 min, 15 min, 30 min, 1 h, 3 h, 8 h, and 24 h after administration. Blood was collected from mice via eyeball removal and placed in anticoagulant tubes containing sodium heparin. The samples were immediately centrifuged at 5000 rpm at low temperature (4°C) for 10 min to obtain plasma samples. The samples were stored in a -80°C freezer for analysis. Three mice were used per time point. (3) The mouse was fixed on a foam board. The skin on the chest was lifted with forceps, and the thoracic skin and ribs were cut open with scissors to expose the heart and liver. The auricle was then cut open. A syringe needle was inserted into the left ventricle of the mouse, and normal saline was perfused for approximately 1 min (10-20 mL) until the mouse's limbs, liver, and tongue turned pale. Brain collection: The skin on the head was cut open to expose the white skull. The cartilage was cut, the skull cap was carefully pried open to expose the white brain, and the entire brain was dissected out. Tissues such as the pancreas, liver, lung, and rectum were also collected. The samples were stored in a -80°C freezer for analysis. (4) The contents of Compound 4 and Compound 1 in peripheral blood and tissues were detected by LC/MS. MS/MS information

HT-29 = assay: Anticancer activity test (CCK-8), HT-29 cells; settings: 72 h, Table 1-1
Description: as §1, §2, §3

[2] = iv (10 mg/kg) Compound 4, 2 min, Mean
[3] = iv (10 mg/kg) Compound 4, 2 min, individual mice, 10 mg/kg
[4] = iv (10 mg/kg) Compound 4, 5min, Mean
[5] = iv (10 mg/kg) Compound 4, 5min, individual mice, 10 mg/kg
[6] = iv (10 mg/kg) Compound 4, 15min, Mean
[7] = iv (10 mg/kg) Compound 4, 15min, individual mice, 10 mg/kg
[8] = iv (10 mg/kg) Compound 4, 30min, Mean
[9] = iv (10 mg/kg) Compound 4, 30min, individual mice, 10 mg/kg
[10] = iv (10 mg/kg) Compound 4, 1h, Mean
[11] = iv (10 mg/kg) Compound 4, 1h, individual mice, 10 mg/kg
[12] = iv (10 mg/kg) Compound 4, 3h, Mean
[13] = po (50 mg/kg) Compound 4, 5min, Mean
[14] = po (50 mg/kg) Compound 4, 5min, individual mice, 50 mg/kg
[15] = po (50 mg/kg) Compound 4, 15min, Mean
[16] = po (50 mg/kg) Compound 4, 15min, individual mice, 50 mg/kg
[17] = po (50 mg/kg) Compound 4, 30min, Mean
[18] = po (50 mg/kg) Compound 4, 30min, individual mice, 50 mg/kg
[19] = po (50 mg/kg) Compound 4, 1h, Mean
[20] = po (50 mg/kg) Compound 4, 1h, individual mice, 50 mg/kg
[21] = po (50 mg/kg) Compound 4, 3h, Mean
[22] = po (50 mg/kg) Compound 4, 8h, Mean

CN(C)CC1C(=O)OC2C1CCC(CC(F)(F)F)=CCCC1(C)OC21 (stereo not drawn) [Compound 4]
IC50 (U-118): 3.93 µM
AUC0-t ([1]; iv (10mg/kg) Compound 4): 438 ng·h/mL
AUC0-t ([1]; po (50 mg/kg) Compound 4): 991 ng·h/mL
Blood Concentrations [1, 2]: 1273 ng/mL
Blood Concentrations [1, 3]: 1200 ng/mL and 1270 ng/mL and 1350 ng/mL
Blood Concentrations [1, 4]: 1045 ng/mL
Blood Concentrations [1, 5]: 866 ng/mL and 889 ng/mL and 1380 ng/mL
Blood Concentrations [1, 6]: 389 ng/mL
Blood Concentrations [1, 7]: 369 ng/mL and 366 ng/mL and 431 ng/mL
Blood Concentrations [1, 8]: 198 ng/mL
Blood Concentrations [1, 9]: 187 ng/mL and 212 ng/mL and 194 ng/mL
Blood Concentrations [1, 10]: 68 ng/mL
Blood Concentrations [1, 11]: 56.2 ng/mL and 48.2 ng/mL and 100 ng/mL
Blood Concentrations [1, 12]: 7 ng/mL
Blood Concentrations [1, 13]: 1061.0 ng/mL
Blood Concentrations [1, 14]: 773 ng/mL and 1040 ng/mL and 1370 ng/mL
Blood Concentrations [1, 15]: 1083.3 ng/mL
Blood Concentrations [1, 16]: 1240 ng/mL and 1070 ng/mL and 940 ng/mL
Blood Concentrations [1, 17]: 815.3 ng/mL
Blood Concentrations [1, 18]: 757 ng/mL and 609 ng/mL and 1080 ng/mL
Blood Concentrations [1, 19]: 153.3 ng/mL
Blood Concentrations [1, 20]: 254 ng/mL and 105 ng/mL and 101 ng/mL
Blood Concentrations [1, 21]: 38.3 ng/mL
Blood Concentrations [1, 22]: 0.4 ng/mL
IC50 (HT-29): 4.41 µM

C=C1C(=O)OC2C1CCC(CC(F)(F)F)=CCCC1(C)OC21 (stereo not drawn)
IC50 (U-118): 1.82 µM
AUC0-t ([1]; iv (10mg/kg) Compound 4): 53 ng·h/mL
AUC0-t ([1]; po (50 mg/kg) Compound 4): 241 ng·h/mL
Plasma Concentrations of the Released Active Substance Compound 1 [1, 2]: 104 ng/mL
Plasma Concentrations of the Released Active Substance Compound 1 [1, 3]: 108 ng/mL and 103 ng/mL and 99.8 ng/mL
Plasma Concentrations of the Released Active Substance Compound 1 [1, 4]: 103 ng/mL
Plasma Concentrations of the Released Active Substance Compound 1 [1, 5]: 74.1 ng/mL and 68.2 ng/mL and 168 ng/mL
Plasma Concentrations of the Released Active Substance Compound 1 [1, 6]: 39.0 ng/mL
Plasma Concentrations of the Released Active Substance Compound 1 [1, 7]: 36.1 ng/mL and 42.0 ng/mL and 38.8 ng/mL
Plasma Concentrations of the Released Active Substance Compound 1 [1, 8]: 18.5 ng/mL
Plasma Concentrations of the Released Active Substance Compound 1 [1, 9]: 16.8 ng/mL and 21.1 ng/mL and 17.6 ng/mL
Plasma Concentrations of the Released Active Substance Compound 1 [1, 10]: 13.6 ng/mL
Plasma Concentrations of the Released Active Substance Compound 1 [1, 11]: 11.7 ng/mL and 12.5 ng/mL and 16.7 ng/mL
Plasma Concentrations of the Released Active Substance Compound 1 [1, 12]: 3.87 ng/mL
Plasma Concentrations of the Released Active Substance Compound 1 ([1]; iv (10 mg/kg) Compound 4, 3h, individual mice, 10 mg/kg): 6.48 ng/mL
Plasma Concentrations of the Released Active Substance Compound 1 ([1]; iv (10 mg/kg) Compound 4, 24h, individual mice): BLOQ
Plasma Concentrations of the Released Active Substance Compound 1 [1, 13]: 101 ng/mL
Plasma Concentrations of the Released Active Substance Compound 1 [1, 14]: 89.6 ng/mL and 80 ng/mL and 133 ng/mL
Plasma Concentrations of the Released Active Substance Compound 1 [1, 15]: 156 ng/mL
Plasma Concentrations of the Released Active Substance Compound 1 [1, 16]: 177 ng/mL and 148 ng/mL and 143 ng/mL
Plasma Concentrations of the Released Active Substance Compound 1 [1, 17]: 124 ng/mL
Plasma Concentrations of the Released Active Substance Compound 1 [1, 18]: 102 ng/mL and 116 ng/mL and 154 ng/mL
Plasma Concentrations of the Released Active Substance Compound 1 [1, 19]: 52.7 ng/mL
Plasma Concentrations of the Released Active Substance Compound 1 [1, 20]: 65.1 ng/mL and 52.4 ng/mL and 40.6 ng/mL
Plasma Concentrations of the Released Active Substance Compound 1 [1, 21]: 21.7 ng/mL
Plasma Concentrations of the Released Active Substance Compound 1 ([1]; po (50 mg/kg) Compound 4, 3h, individual mice, 50 mg/kg): 24.0 ng/mL and 21.7 ng/mL and 19.4 ng/mL
Plasma Concentrations of the Released Active Substance Compound 1 [1, 22]: 3.16 ng/mL
Plasma Concentrations of the Released Active Substance Compound 1 ([1]; po (50 mg/kg) Compound 4, 24h, individual mice): BLOQ
IC50 (HT-29): 3.31 µM

Several values for one entry are separate records, joined by “and”; a condition that tells them apart may be missing. Identical values can stand only once.
